Laboratory results taken from ChEMBL document CHEMBL5360622, “Leucettinibs, a Class of DYRK/CLK Kinase Inhibitors Inspired by the Marine Sponge Natural Product Leucettamine B” (J Med Chem, 2023).

By UniProt entry, the sequences of proteins in these tests, tags left out. Where a name states a change or a piece, a line headed by the entry shows the natural chain unless it says otherwise.
UniProt P49760, whole entry: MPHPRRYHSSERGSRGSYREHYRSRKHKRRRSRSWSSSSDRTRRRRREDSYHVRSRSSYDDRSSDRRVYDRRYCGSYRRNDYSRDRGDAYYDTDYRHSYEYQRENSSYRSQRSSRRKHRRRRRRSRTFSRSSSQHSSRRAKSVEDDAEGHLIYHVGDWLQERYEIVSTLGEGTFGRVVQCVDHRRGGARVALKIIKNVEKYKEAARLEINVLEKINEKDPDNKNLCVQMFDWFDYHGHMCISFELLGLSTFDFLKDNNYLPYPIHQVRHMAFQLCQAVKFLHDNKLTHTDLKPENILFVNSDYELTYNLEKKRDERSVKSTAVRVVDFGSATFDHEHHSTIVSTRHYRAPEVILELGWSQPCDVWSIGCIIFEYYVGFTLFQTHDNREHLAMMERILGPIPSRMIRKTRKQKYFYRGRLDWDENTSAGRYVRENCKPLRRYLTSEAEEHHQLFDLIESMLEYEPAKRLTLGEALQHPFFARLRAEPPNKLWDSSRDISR
UniProt P49759: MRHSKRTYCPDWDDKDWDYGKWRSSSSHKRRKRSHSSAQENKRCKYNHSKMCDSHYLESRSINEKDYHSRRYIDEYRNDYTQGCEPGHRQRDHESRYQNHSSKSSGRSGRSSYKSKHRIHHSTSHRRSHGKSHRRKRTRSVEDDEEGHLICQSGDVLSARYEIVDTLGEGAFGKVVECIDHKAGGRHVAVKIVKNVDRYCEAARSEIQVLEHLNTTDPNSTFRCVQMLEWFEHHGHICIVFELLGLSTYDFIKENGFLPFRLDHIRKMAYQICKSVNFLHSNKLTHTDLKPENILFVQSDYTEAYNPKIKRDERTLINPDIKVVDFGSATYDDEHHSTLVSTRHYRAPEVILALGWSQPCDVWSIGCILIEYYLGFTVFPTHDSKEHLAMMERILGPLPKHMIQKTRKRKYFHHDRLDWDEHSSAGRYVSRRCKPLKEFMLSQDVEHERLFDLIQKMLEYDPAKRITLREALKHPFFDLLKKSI

Assays:
[1] = biological target: Dual specificity protein kinase CLK2 (Homo sapiens, UniProt P49760)
[2] = biological target: Dual specificity protein kinase CLK1 (Homo sapiens, UniProt P49759)

SMILES | IC50 [1] [nM] | IC50 [2] [nM]
O=C1NC(Nc2ccccc2)=N/C1=C\c1ccc2c(c1)OCO2 | 130 | 23
CN1CCC(NC2=N/C(=C\c3ccc4ncsc4c3)C(=O)N2)C1=O (racemic) | 344 | 
